Measured values taken from US4892887A, “N,N'-bis(sulfonyl)hydrazines having antineoplastic activity” (Yale University, priority 1988, dated 1990).

What was measured:
B16 melanoma = assay: Survival time of mice bearing the B16 melanoma; design: species or system mouse (C57B1 mice); conditions: mouse, in vivo
B16 melanoma cells = assay: Cytotoxicity: colony-forming ability of B16 melanoma cells; type: cell-based; conditions: compared with compound 8
Description: The cytotoxicity of compounds 8 and 12 was determined by measuring their effects on the colony-forming ability of B16 melanoma cells. The cells were maintained in Eagle's minimum essential medium supplemented with 10% fetal bovine serum. To obtain exponentially growing B16 melanoma cells, a 25 cm^2 flask was inoculated with 10^5 cells for two days before addition of drug. The cell monolayer was exposed to various concentrations of compound for 1 hour. After exposure, the layer was washed twice with PBS to remove the compound. The cells were harvested with 2 mM EDTA in PBS, and 200 cells were plated on a 60 mm dish with 5 mL of medium. After incubation for 12 days, the colonies were stained with crystal violet and counted. […] The LD50 was determined from the individual dose-response curves.

Cc1ccc(S(=O)(=O)N(C)NS(C)(=O)=O)cc1 [Compound 12]
activity against the B16 melanoma (in words) (B16 melanoma): appreciable levels of activity against the B16 melanoma | toxicity to B16 melanoma cells in culture relative to compound 8 (B16 melanoma cells): approximately four-times more toxic
